Amino acid sequences for entries named in this document (tags omitted). A change or cut given only in a name is not applied to a line headed by its entry.
UniProt P56450, whole entry: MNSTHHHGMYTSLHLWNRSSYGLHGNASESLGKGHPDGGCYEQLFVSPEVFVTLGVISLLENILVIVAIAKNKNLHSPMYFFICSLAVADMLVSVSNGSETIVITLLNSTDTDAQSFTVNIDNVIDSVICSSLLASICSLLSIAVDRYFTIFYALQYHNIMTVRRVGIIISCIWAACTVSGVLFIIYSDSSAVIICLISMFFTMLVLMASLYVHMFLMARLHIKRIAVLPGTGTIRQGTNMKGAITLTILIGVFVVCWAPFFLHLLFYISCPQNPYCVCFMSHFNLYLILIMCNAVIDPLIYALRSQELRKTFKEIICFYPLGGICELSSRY
UniProt P33033: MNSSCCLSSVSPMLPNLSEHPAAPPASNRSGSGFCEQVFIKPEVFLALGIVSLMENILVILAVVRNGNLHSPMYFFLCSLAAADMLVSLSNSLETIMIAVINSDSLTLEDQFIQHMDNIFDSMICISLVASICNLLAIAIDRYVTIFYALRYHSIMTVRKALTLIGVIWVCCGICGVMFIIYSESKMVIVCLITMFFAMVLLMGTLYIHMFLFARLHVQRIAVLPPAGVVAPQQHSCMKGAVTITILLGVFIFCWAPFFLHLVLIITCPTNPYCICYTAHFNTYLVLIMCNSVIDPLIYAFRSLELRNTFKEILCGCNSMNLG

According to ChEMBL document CHEMBL4038350 (J Med Chem, 2017):

Legend:
Format in all cases: functional, cell-based
Melanocortin receptor 4 [1] = target: T1, Melanocortin receptor 4 (Mus musculus, UniProt P56450); test: Antagonist activity at mouse melanocortin receptor 4 expressed in HEK293 cells assessed as inhibition of NDP-MSH-induced cAMP accumulation after 2 hrs by AlphaScreen assay; conditions: read-out: pA2 (converted)
Melanocortin receptor 4 [2] = target: T1, Melanocortin receptor 4; test: Agonist activity at mouse melanocortin receptor 4 expressed in HEK293 cells assessed as increase in cAMP accumulation after 2 hrs by AlphaScreen assay
Melanocortin receptor 3 = Melanocortin receptor 3 (Mus musculus, UniProt P33033); test: Agonist activity at mouse melanocortin receptor 3 expressed in HEK293 cells assessed as increase in cAMP accumulation after 2 hrs by AlphaScreen assay
Outline: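 Peptide (10−4 to 10−13 M) was added for 2 h at room temperature in the dark. Donor beads and biotin-cAMP in lysis buffer followed for 2 h. The AlphaScreen signal was read. EC50 came from nonlinear least-squares fits, duplicates, at least three independent experiments.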

SMILES	Kb (Melanocortin receptor 4 [1])	EC50 (Melanocortin receptor 4 [2])	EC50 (Melanocortin receptor 3)
C[C@@H]1NC(=O)[C@H](CN)NC(=O)[C@H](Cc2ccccc2)NC(=O)[C@H](Cc2ccccc2)NC(=O)[C@H](CCCNC(=N)N)NC(=O)[C@@H]2CCCN2C(=O)[C@H]2CCCN2C(=O)[C@H](Cc2ccccc2)NC1=O	0.002 µM	> 100 µM	–
C[C@@H]1NC(=O)[C@H](CC(N)=O)NC(=O)[C@H](Cc2ccccc2)NC(=O)[C@H](Cc2ccccc2)NC(=O)[C@H](CCCNC(=N)N)NC(=O)[C@@H]2CCCN2C(=O)[C@H]2CCCN2C(=O)[C@H](Cc2ccccc2)NC1=O	–	–	> 100 µM
C[C@@H]1NC(=O)[C@@H](CN)NC(=O)[C@H](Cc2ccccc2)NC(=O)[C@H](Cc2ccccc2)NC(=O)[C@H](CCCNC(=N)N)NC(=O)[C@@H]2CCCN2C(=O)[C@H]2CCCN2C(=O)[C@H](Cc2ccccc2)NC1=O	–	> 100 µM	–
